In this assay the test system is BT474 cells. As to the kind of experiment: Cell proliferation assay (alamar blue), BT474. Format: cell-based. The following applies: antibodies at 150 μg/ml, day 6 of in vitro culture. (In general: Resazurin is reduced to fluorescent resorufin, in cell work by metabolically active cells.)

In the case of “Herceptin: anti-Her2/neu antibody, positive antibody control for Her2-positive tumor cell lines”, the proliferation result is “inhibit proliferation of BT474”.

The record behind these values is patent US20080305111A1, “Anti-C35 antibodies for treating cancer” (VACCINEX, INC., priority 2006, published 2008).
